Reference: PMC10459838 (Veterinary Sciences, 2023)

Tests used:
[1] = tested on: CRFK cells; test: Cell viability assay (MTT, Cell Proliferation Kit I); type: cell-based, feline; settings: 48 h, MTT staining
Description: The Crandell-Reese feline kidney (CRFK) cells utilized in this study were purchased from American Type Culture Collection (ATCC, Manassas, VA, USA), and cultured in Eagle’s Minimum Essential Medium (EMEM) medium supplemented with 10% fetal bovine serum (FBS), 1% antibiotics (penicillin and streptomycin), and 1% non-essential amino acids. The reagents were obtained from ATCC. The CRFK cells were incubated at 37 °C with 5% CO2.
The cell viability of CRFK cells was measured using a Cell Proliferation Kit I (MTT) (Roche Applied Science, Indianapolis, IN, USA), following the manufacturer’s instructions. […] After incubation for 48 h, 10 μL of MTT solution (0.5 mg/mL in phosphate-buffered saline) was added to each well. The plate was incubated for 4 h at 37 °C to allow the formation of formazan crystals. Following incubation, 1% sodium dodecyl sulfate (100 μL) solution was added to dissolve the crystals.

[2] = tested on: FIPV serotype II strain (WSU-79-1146); test: Antiviral efficacy against FIPV replication in CRFK cells, viral load by qRT-PCR; type: cell-based, feline infectious peritonitis virus
[3] = tested on: CRFK cells; settings: 48 h, CellTox Green

`N#CC[C@H](C1CCCC1)n1cc(-c2ncnc3[nH]ccc23)cn1` [Ruxolitinib] was tested, and the “Concentration as high as which the drug could be used safely with minimal cytotoxicity” value [1] was 250 µM, the “Selectivity index (SI) = (mean CC50)/(mean EC50)” value [2] was 7.8 and the “Highest concentration with essentially no cytotoxicity” value [3] was 250 µM.
